In patent US11247001B2, “Delivery device with cantilever structure and associated method of use” (De Motu Cordis Pty Ltd, priority 2016, dated 2022):

Experiment: Particle deagglomeration: particle size distribution of the dose of dry powder emitted by the delivery device
Format: physicochemical
Settings: Table 2, performance of device, N = 8, 68% CI
Source text: The performance of the delivery device can be measured by how closely the particle size distribution of the emitted powder approaches the original distribution.
An embodiment of the device that stored Mannitol on a corrugated reed was also compared to the embodiment of the device that stored and dispensed Mannitol from a blister.

CNCC(O)c1ccc(O)c(O)c1 (stereo not shown) [Adrenaline]
Fine Particle Fraction < 5 um (%): 30.4-37.1%
